The term IC50 denotes the concentration at which inhibition is half-maximal. Usually LogD stands for lipophilicity at a set pH, counting ionised and neutral species.

Sequences of proteins named here, by UniProt entry; tags and fusion partners are left off. Residues count along the entry.
UniProt P54753, 34-998 limits assumed: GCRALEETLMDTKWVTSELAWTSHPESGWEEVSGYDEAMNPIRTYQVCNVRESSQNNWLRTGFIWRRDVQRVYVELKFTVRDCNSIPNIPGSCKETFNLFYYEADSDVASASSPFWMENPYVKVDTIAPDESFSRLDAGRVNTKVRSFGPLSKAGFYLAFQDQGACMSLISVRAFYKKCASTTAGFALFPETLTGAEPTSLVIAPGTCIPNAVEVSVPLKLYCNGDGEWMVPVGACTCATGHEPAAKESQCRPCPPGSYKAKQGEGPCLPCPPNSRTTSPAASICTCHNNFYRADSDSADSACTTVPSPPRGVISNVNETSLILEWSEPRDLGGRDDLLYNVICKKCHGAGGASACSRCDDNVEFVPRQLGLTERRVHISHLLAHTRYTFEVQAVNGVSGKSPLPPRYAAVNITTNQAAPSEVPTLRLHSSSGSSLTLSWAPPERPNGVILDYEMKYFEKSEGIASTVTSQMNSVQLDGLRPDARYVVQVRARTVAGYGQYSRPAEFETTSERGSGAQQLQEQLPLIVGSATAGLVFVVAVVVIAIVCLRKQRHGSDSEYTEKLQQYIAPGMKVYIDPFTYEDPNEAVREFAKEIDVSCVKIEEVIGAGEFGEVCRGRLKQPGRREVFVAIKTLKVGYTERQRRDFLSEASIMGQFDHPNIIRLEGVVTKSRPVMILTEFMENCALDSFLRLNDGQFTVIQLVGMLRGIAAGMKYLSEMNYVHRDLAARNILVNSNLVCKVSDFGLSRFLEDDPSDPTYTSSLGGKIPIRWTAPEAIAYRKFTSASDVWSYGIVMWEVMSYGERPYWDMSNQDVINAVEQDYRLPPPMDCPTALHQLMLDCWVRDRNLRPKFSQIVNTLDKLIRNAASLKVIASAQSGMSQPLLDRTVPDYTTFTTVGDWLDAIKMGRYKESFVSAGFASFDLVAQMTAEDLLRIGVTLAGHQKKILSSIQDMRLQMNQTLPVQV
UniProt Q99640, whole entry: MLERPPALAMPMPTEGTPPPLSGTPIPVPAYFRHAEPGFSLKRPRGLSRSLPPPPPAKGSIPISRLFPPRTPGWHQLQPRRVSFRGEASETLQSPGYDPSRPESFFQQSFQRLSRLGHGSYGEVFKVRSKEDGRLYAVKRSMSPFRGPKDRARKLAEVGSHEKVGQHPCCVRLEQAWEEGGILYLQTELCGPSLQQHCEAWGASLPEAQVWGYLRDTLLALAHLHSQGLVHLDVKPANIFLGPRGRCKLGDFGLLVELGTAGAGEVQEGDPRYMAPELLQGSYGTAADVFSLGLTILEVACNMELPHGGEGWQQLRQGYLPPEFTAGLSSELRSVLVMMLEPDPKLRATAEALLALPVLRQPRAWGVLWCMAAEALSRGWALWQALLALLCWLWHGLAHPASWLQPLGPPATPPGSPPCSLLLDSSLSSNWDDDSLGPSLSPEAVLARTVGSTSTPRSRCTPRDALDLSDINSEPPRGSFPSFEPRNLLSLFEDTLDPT
UniProt P30291, whole entry: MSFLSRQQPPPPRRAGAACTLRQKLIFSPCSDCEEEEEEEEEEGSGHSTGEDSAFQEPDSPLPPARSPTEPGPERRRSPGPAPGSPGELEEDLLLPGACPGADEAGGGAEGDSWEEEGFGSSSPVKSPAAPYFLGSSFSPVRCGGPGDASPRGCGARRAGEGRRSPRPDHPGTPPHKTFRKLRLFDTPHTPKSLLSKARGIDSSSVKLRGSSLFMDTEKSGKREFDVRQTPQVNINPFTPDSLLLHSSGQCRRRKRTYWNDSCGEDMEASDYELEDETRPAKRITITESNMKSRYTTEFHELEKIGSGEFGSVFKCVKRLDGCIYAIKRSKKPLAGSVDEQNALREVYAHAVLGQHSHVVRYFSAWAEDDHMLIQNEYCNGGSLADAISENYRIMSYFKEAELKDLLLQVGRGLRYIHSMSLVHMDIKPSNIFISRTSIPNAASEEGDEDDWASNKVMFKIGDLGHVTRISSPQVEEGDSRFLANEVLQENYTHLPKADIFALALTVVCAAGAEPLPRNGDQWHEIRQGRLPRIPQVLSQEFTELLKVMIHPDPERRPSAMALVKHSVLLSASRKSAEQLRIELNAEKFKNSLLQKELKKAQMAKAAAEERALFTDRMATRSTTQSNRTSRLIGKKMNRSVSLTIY

Molecules are shown by their SMILES. Where only a bound is given, the exact number is not on record here.

One data set deals with EPHB3 (Homo sapiens, UniProt P54753). The experiment in a line: NanoBRET target engagement in HEK293T cells, EPHB3. Conditions: read-out: EPHB3 INHIBITION IC50, 2 h.
Data set [1] deals with CDK1 pThr14 (PKMYT1 substrate), FUOV-1 cells (Homo sapiens, UniProt Q99640). The data set is described as follows: Functional CDK1 pThr14 AlphaLISA assay in FUOV-1 cells. Conditions: read-out: pCDk1(Thr14) INHIBITION IC50, 2 h.
Another data set concerns the target WEE1 (Homo sapiens, UniProt P30291). The experiment in a line: NanoBRET target engagement in HEK293T cells, WEE1. The note with it: read-out: WEE1 INHIBITION IC50, 2 h. A general note: In BRET a luciferase serves as donor, and the signal depends on an acceptor being close.
Data set [2] in a line: Metabolic stability in human liver microsomes (HLM). Conditions: human liver microsomes 1 mg/mL, 1 μM. On the technique in general: Liver microsomes are vesicles of endoplasmic reticulum, rich in cytochrome P450 enzymes.
Another data set concerns the target PKMYT1 (Homo sapiens, UniProt Q99640). The experiment in a line: NanoBRET target engagement in HEK293T cells, PKMYT1. Conditions: read-out: PKMYT1 INHIBITION IC50, 2 h.
Data set [3] in a line: Aqueous (thermodynamic) solubility, pH 7.4. Conditions: 0.1 M phosphate buffer pH 7.4, 24 h, 25 °C.
Another data set can be described thus: Log D octanol/PBS pH 7.4. The note with it: octanol/PBS pH 7.4, 1 μM.

As for `CNc1ncc2c(C(N)=O)c(N)n(-c3c(C)ccc(O)c3C)c2n1` (single isomer, unassigned) [92, Isomer 2], the 50% inhibitory concentration (IC50) on EPHB3 is above 9.97 µM; in data set [1], above 9.91 µM; on WEE1, above 9.97 µM; at PKMYT1, 3.06 µM. Also, the “HLM (CLint)” value in data set [2] was below 3.000 µL/min/mg.
In the case of `CC#Cc1ncc2c(C(N)=O)c(N)n(-c3c(C)ccc(O)c3C)c2n1` (single isomer, unassigned) [93, Isomer 1], the IC50 on EPHB3 is above 9.97 µM; in data set [1] it was above 9.91 µM; on WEE1, above 3.16 µM; at PKMYT1, 7.12 µM. In data set [2], the “HLM (CLint)” value was determined as 12.494 µL/min/mg.
For `Cc1ccc(O)c(C)c1-n1c(N)c(C(N)=O)c2cnc(N3CCC3)nc21` (single isomer, unassigned) [75, Isomer 2], in that order: above 9.97 µM, above 9.91 µM, above 9.97 µM, 8.22 µM and 10.395 µL/min/mg.
`Cc1ccc(O)c(C)c1-n1c(N)c(C(N)=O)c2cnc(N3CCCC3)nc21` (single isomer, unassigned) [74, Isomer 2]: the IC50 on EPHB3 was above 9.97 µM; in data set [1], above 9.91 µM; at WEE1 it was above 9.97 µM; on PKMYT1, 5.23 µM. In data set [2], the “HLM (CLint)” value came out at 73.837 µL/min/mg.
Turning to `Cc1ncc2c(C(N)=O)c(N)n(-c3c(Cl)ccc(O)c3Cl)c2n1` (single isomer, unassigned) [85, Isomer 2], the IC50 was above 9.97 µM on EPHB3, 9.77 µM in data set [1], above 9.97 µM at WEE1 and 2.38 µM on PKMYT1. For the same compound, the “HLM (CLint)” value in data set [2] was below 3.000 µL/min/mg.
For the compound `CCOc1ncc2c(C(N)=O)c(N)n(-c3c(C)ccc(O)c3C)c2n1` (single isomer, unassigned) [83, Isomer 1], the IC50 is above 9.97 µM at EPHB3, above 9.91 µM in data set [1], above 9.97 µM on WEE1 and 2.17 µM at PKMYT1. Further, in data set [2], the “HLM (CLint)” value turned out to be 8.880 µL/min/mg.
`Cc1ncc2c(C(N)=O)c(N)n(-c3c(Cl)ccc(O)c3C)c2n1` (single isomer, unassigned) [73, Isomer 2]: the IC50 is above 9.97 µM on EPHB3, 6.01 µM in data set [1], above 9.97 µM on WEE1 and 1.07 µM on PKMYT1.
Consider `Cc1ccc(O)c(C)c1-n1c(N)c(C(N)=O)c2cnc(C3CCC3)nc21` (single isomer, unassigned) [71, Isomer 2], for which the IC50 at EPHB3 is above 9.97 µM; in data set [1], 9.48 µM; at WEE1, above 9.97 µM; on PKMYT1, 1.19 µM. In data set [2], the “HLM (CLint)” value is 70.948 µL/min/mg.
With `Cc1ccc(O)c(C)c1-n1c(N)c(C(N)=O)c2cnc(C3CCC3)nc21` (single isomer, unassigned) [71, Isomer 1], the IC50 at EPHB3 was 0.18 µM; in data set [1], 0.072 µM; at WEE1, above 9.97 µM; on PKMYT1, 0.004 µM. The “HLM (CLint)” value in data set [2] was determined as 145.851 µL/min/mg.
For `CCOc1ncc2c(C(N)=O)c(N)n(-c3c(C)ccc(O)c3C)c2n1` (single isomer, unassigned) [83, Isomer 2], in that order: 0.294 µM, 0.158 µM, above 9.97 µM, 0.012 µM and 22.200 µL/min/mg.
For `Cc1ccc(O)c(C)c1-n1c(N)c(C(N)=O)c2cnc(N3CCC(F)(F)C3)nc21` (single isomer, unassigned) [10, Isomer 2], in that order: above 9.97 µM, above 9.91 µM, above 9.97 µM, 0.869 µM and 46.045 µL/min/mg.
For `Cc1ccc(O)c(C)c1-n1c(N)c(C(N)=O)c2cnc(N3CCCC3)nc21` (single isomer, unassigned) [74, Isomer 1], in that order: 0.026 µM, 0.139 µM, above 9.97 µM, 0.006 µM and 53.282 µL/min/mg.
Take `CNc1ncc2c(C(N)=O)c(N)n(-c3c(C)ccc(O)c3C)c2n1` (single isomer, unassigned) [92, Isomer 1]: the 50% inhibitory concentration (IC50) at EPHB3 was 0.191 µM; in data set [1], 0.127 µM; on WEE1, above 9.97 µM; on PKMYT1, 0.018 µM. Moreover, the “HLM (CLint)” value in data set [2] worked out at 7.183 µL/min/mg.
In the case of `Cc1ccc(O)c(C)c1-n1c(N)c(C(N)=O)c2cnc(N3CCOCC3)nc21` (single isomer, unassigned) [47, Isomer2], the “Solubility pH 7.4” value in data set [3] is above 944 μM. In addition, the LogD in “Log D octanol/PBS pH 7.4” came out at 1.88.
For `Cc1ccc(O)c(C)c1-n1c(N)c(C(N)=O)c2cnc(N3CCC(F)(F)C3)nc21` (single isomer, unassigned) [10, Isomer2], the “Solubility pH 7.4” value in data set [3] was determined as 34 μM. This compound came in with a LogD in “Log D octanol/PBS pH 7.4” of 2.93.
For `Cc1cc2c(nn1)c(C(N)=O)c(N)n2-c1c(C)ccc(O)c1C` (single isomer, unassigned) [53, Isomer1], in that order: 797 μM and 1.9.
Consider `Cc1ccc(O)c(C)c1-n1c(N)c(C(N)=O)c2cnc(N3CCC3)nc21` (single isomer, unassigned) [75, Isomer 1], for which the IC50 is 0.117 µM on EPHB3, 0.352 µM in data set [1], above 9.97 µM on WEE1 and 0.018 µM at PKMYT1. In addition, the “HLM (CLint)” value in data set [2] came to 13.871 µL/min/mg.
For `Cc1ccc(O)c(C)c1-n1c(N)c(C(N)=O)c2cnc(N3CC(C)(C)C3)nc21` (single isomer, unassigned) [135, Isomer2], the “Solubility pH 7.4” value in data set [3] came out at 84 μM. In addition, the log distribution coefficient (LogD) in the data set “Log D octanol/PBS pH 7.4” is 2.69.
For `CCn1cc2c(C(N)=O)c(N)n(-c3c(C)ccc(O)c3C)c2nc1=O` (single isomer, unassigned) [79, Isomer1], in that order: 439 μM and 1.55.
Consider `CC#Cc1ncc2c(C(N)=O)c(N)n(-c3c(C)ccc(O)c3C)c2n1` (single isomer, unassigned) [93, Isomer 2], for which the half-maximal inhibitory concentration (IC50) on EPHB3 was 1.49 µM; in data set [1], 0.15 µM; at WEE1, above 9.97 µM; at PKMYT1 it was 0.019 µM. Also, the “HLM (CLint)” value in data set [2] is 5.751 µL/min/mg.
As for `CNc1ncc2c(C(N)=O)c(N)n(-c3c(C)ccc(O)c3C)c2n1` (single isomer, unassigned) [92, Isomer1], the “Solubility pH 7.4” value in data set [3] was above 1000 μM. The pH-dependent lipophilicity (LogD) in the data set “Log D octanol/PBS pH 7.4” amounted to 1.49.
In the case of `Cc1cc2c(nn1)c(C(N)=O)c(N)n2-c1c(C)ccc(O)c1C` (single isomer, unassigned) [53, Isomer 2], the IC50 was 0.677 µM on EPHB3, 2.86 µM in data set [1], above 9.97 µM on WEE1 and 0.08 µM on PKMYT1. Also, the “HLM (CLint)” value in data set [2] turned out to be 9.700 µL/min/mg.
As for `CC#Cc1ncc2c(C(N)=O)c(N)n(-c3c(C)ccc(O)c3C)c2n1` (single isomer, unassigned) [93, Isomer2], the “Solubility pH 7.4” value in data set [3] is listed as above 1000 μM. The LogD in the data set “Log D octanol/PBS pH 7.4” was determined as 1.76.
For `Cc1ccc(O)c(C)c1-n1c(N)c(C(N)=O)c2cn(C)c(=O)cc21` (single isomer, unassigned) [56, Isomer1], in that order: above 1000 μM and 1.
For `Cc1ccc(O)c(C)c1-n1c(N)c(C(N)=O)c2cnc(C(F)(F)F)nc21` (single isomer, unassigned) [62, Isomer2], in that order: 447 μM and 2.2.
With `Cc1ccc(O)c(C)c1-n1c(N)c(C(N)=O)c2cnc(N3CC(C)(C)C3)nc21` (single isomer, unassigned) [135, Isomer 1], the 50% inhibitory concentration (IC50) is 0.233 µM at EPHB3, 0.181 µM in data set [1], above 9.97 µM on WEE1 and 0.01 µM on PKMYT1. In addition, the “HLM (CLint)” value in data set [2] came to 42.040 µL/min/mg.
Consider `CNc1ncc2c(C(N)=O)c(N)n(-c3c(C)ccc(O)c3C)c2n1` (single isomer, unassigned) [92, Isomer2], for which the “Solubility pH 7.4” value in data set [3] is given as above 1000 μM. In the data set “Log D octanol/PBS pH 7.4”, the log distribution coefficient (LogD) came out at 1.35.
For `Cc1ccc(O)c(C)c1-n1c(N)c(C(N)=O)c2cnc(N3CCOCC3)nc21` (single isomer, unassigned) [47, Isomer1], in that order: above 1000 μM and 1.92.
Take `Cc1ccc(O)c(C)c1-n1c(N)c(C(N)=O)c2cnc(N3CCC(F)(F)C3)nc21` (single isomer, unassigned) [10, Isomer 1]: the IC50 on EPHB3 turned out to be 0.036 µM; in data set [1], 0.105 µM; on WEE1, 5.41 µM; on PKMYT1 it was 0.007 µM. The “HLM (CLint)” value in data set [2] is 49.624 µL/min/mg.
In the case of `Cc1ccc(O)c(C)c1-n1c(N)c(C(N)=O)c2cnc(N3CCN(C)CC3)nc21` (single isomer, unassigned) [70, Isomer2], in data set [3], the “Solubility pH 7.4” value came out at 236 μM. Further, the pH-dependent lipophilicity (LogD) in “Log D octanol/PBS pH 7.4” was 1.48.
For `Cc1cc2c(nn1)c(C(N)=O)c(N)n2-c1c(C)ccc(O)c1C` (single isomer, unassigned) [53, Isomer2], in that order: above 1000 μM and 1.8.
As for `Cc1ncc2c(C(N)=O)c(N)n(-c3c(Cl)ccc(O)c3Cl)c2n1` (single isomer, unassigned) [85, Isomer1], in data set [3], the “Solubility pH 7.4” value turned out to be 611 μM. Moreover, in “Log D octanol/PBS pH 7.4”, the log distribution coefficient (LogD) amounted to 0.963.
Turning to `CCOc1ncc2c(C(N)=O)c(N)n(-c3c(C)ccc(O)c3C)c2n1` (single isomer, unassigned) [83, Isomer2], the “Solubility pH 7.4” value in data set [3] was above 1000 μM. For the same compound, the LogD in the data set “Log D octanol/PBS pH 7.4” is 2.

(Values after patent US20260384438A1, “PYRROLOPYRIMIDINE CARBOXAMIDES” (published 2026).)
